Data taken from patent US3962447A, “Novel pro-drug derivatives of pyridinium aldoxime type cholinesterase reactivators and method of using same” (dated 1976).

Tests used:
[1] = system: lethal effects of paraoxon; conditions: test animals, in words; cited from earlier work
[2] = system: cholinesterase in the brain; conditions: 100 mg/kg I.P., rat, after intoxication in vivo by Sarin; cited from earlier work
[3] = system: patients intoxicated by Parathion; conditions: cited from earlier work
[4] = system: toxic effect of a nerve agent, such as G.B. (Sarin); conditions: man, cited from earlier work
[5] = pKa by titration and U.V. methods; conditions: for pKa of the tertiary amine: titration and U.V. methods, hydrochloride
[6] = urinary analysis after parenteral administration; conditions: conclusion from urinary recovery, in words
[7] = system: cholinesterase; assay: in vivo cholinesterase reactivation: protection of mice against phospholine iodide toxicity; conditions: DPAM-HCl 50 mg/kg alone, no phospholine iodide, 0.2 cc saline
[8] = concentrations in blood after I.V. administration and elimination half-life in Beagle dogs; conditions: for distribution in blood: in words
[9] = cited from earlier work
[10] = cited from earlier work; remark: listed apart in the source
[11] = rat, within ten minutes after administration; cited from earlier work

C[n+]1ccccc1C=NO
protection from the lethal effects of paraoxon [1]: still protected from the lethal effects of paraoxon | reactivated cholinesterase in the brain [2]: 4% | recovery of consciousness ([3]; patients intoxicated by Parathion): rapid recovery of consciousness | anti-convulsant action ([3]; some patients): significant anti-convulsant action in some patients

C[n+]1ccccc1C=NO.[I-]
intravenous dose required to alleviate the toxic effect of a nerve agent ([4]; as the iodide): 14 to 28 mg/kg

CN1CC=CC=C1C=NO.Cl
pKa of the oxime moiety ([5]; U.V.): about 10.5 | pKa of the tertiary amine ([5]; listed as 1-methyl-1,6-dihydropyridine-2-aldoxime hydrochloride): 6.32 | pKa of the tertiary amine ([5]; listed as pro-2-PAM): 6.32 | metabolism of the pro-drug form [6]: transferred into 2-PAM without any other significant secondary metabolic pathways | SURVIVED [7]: 10/10 | distribution in blood ([8]; Beagle dogs): distributed mainly in the blood cells and blood proteins | amount in blood cells and proteins relative to plasma ([8]; DPAM, Beagle dogs): twice as much | excretion (elimination) half-life (t 1/2), in words ([8]; compared with 2-PAM): substantially increased

C[n+]1ccccc1C=NO.[Cl-]
corresponding intravenous dose of 2-PAM chloride ([4]; as the chloride, calculated from oxime content (1.4 g iodide = 1 g chloride)): 10 to 20 mg/kg

C[n+]1ccccc1/C=N/O
binding to human serum protein ([9]; in words): not found to be bound appreciably | entry into the erythrocytes ([9]; in words): nor for that matter, to enter the erythrocytes | compound excreted during the first six hours ([9]; man, intravenous 15 mg/kg): Approximately 80% | time in which most of the unchanged oxime was found in the urine ([9]; man, intravenous 15 mg/kg): within the first thirty minutes | amount of absorption into the bloodstream, oral administration [10]: 20 to 30% | crossing of the blood-brain barrier [11]: some crossing of the blood-brain barrier does occur | distribution in blood ([8]; Beagle dogs): distributed only in the plasma, practically none of the drug being observed in the blood cells or blood proteins
